Experimental findings from patent publication US7235366B1 (priority 1993, dated 2007) are described below.

By UniProt entry, the sequences of proteins in these tests, tags left out. Where a name states a change or a piece, a line headed by the entry shows the natural chain unless it says otherwise.
UniProt P32300, whole entry H278N: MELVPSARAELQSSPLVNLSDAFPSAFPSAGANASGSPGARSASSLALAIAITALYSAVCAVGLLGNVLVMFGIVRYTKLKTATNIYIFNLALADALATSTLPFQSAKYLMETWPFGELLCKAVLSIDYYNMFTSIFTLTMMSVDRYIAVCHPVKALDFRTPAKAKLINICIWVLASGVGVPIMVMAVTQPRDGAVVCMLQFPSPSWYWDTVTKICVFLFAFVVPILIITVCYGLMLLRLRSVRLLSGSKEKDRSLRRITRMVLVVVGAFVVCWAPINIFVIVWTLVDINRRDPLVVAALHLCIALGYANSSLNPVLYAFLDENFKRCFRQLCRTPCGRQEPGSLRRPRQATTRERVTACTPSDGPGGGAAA
UniProt P32300, whole entry: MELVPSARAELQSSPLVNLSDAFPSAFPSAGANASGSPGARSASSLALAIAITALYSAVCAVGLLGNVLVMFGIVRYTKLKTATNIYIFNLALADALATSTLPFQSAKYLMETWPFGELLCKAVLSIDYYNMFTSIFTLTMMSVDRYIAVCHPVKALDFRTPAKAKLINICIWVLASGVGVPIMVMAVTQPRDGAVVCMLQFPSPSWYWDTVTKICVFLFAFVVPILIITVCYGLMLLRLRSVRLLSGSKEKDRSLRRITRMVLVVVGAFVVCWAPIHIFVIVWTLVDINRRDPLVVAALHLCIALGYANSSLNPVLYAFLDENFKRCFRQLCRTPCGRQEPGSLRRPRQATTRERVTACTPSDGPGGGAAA
UniProt P32300, whole entry D128N: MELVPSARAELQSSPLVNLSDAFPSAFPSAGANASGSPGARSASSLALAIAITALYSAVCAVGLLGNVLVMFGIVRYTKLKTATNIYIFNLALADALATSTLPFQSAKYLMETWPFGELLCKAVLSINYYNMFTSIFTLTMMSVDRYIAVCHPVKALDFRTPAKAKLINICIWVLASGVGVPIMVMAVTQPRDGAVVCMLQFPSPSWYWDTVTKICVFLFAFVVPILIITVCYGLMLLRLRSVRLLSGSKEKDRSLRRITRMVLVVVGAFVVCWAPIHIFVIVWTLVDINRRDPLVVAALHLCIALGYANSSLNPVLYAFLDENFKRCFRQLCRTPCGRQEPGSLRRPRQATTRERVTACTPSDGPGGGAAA
UniProt P33535, whole entry: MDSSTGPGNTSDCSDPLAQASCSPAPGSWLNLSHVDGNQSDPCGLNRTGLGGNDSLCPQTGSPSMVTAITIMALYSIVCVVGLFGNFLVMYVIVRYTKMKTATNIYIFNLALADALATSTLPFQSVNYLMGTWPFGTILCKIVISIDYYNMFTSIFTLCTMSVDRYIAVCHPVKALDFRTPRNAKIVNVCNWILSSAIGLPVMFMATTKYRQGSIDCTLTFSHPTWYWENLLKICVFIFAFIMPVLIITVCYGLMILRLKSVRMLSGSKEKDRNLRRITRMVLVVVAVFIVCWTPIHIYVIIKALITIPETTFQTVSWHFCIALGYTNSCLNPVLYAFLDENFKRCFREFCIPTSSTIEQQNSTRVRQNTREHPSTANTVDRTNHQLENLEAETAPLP
UniProt P33534: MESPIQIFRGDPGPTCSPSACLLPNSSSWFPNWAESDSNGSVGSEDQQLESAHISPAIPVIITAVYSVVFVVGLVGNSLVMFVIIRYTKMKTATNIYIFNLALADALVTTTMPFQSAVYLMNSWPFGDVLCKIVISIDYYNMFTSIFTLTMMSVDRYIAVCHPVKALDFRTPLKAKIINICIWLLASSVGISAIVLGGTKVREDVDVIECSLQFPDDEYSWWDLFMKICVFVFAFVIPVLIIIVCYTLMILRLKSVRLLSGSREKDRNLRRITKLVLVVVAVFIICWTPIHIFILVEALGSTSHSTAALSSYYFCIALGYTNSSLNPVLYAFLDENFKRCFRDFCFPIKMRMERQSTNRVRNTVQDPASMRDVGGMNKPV
UniProt P35372, whole entry: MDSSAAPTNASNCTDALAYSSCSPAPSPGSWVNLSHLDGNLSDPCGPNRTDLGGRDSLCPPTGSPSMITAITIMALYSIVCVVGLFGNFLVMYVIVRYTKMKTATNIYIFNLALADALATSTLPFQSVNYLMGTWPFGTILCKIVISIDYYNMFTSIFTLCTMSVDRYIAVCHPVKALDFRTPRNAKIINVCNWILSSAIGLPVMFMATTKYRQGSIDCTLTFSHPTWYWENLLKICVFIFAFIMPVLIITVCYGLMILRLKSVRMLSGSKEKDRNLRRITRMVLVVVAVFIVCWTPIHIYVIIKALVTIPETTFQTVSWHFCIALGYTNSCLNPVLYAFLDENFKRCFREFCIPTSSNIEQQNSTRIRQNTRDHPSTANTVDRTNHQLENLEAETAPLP

The target in assay [1] is T1, H278N mutant mouse delta opioid receptor (Mus musculus, UniProt P32300, H278N).
T1 construct: expressed in transfected cells; host or cells: COS-7 (transient, pCMV6c)
Type of assay: binding. The conditions noted are these: read-out: Potencies of Agonists to Bind, H278N mutant (Ki values in nM).

In assay [2] the target is cloned rat μ receptor (Rattus norvegicus, UniProt P33535). The following applies: read-out: Binding potencies (Ki-nM) μ RECEPTOR [^3H] DAMGO.
Assay [3] concerns the target cloned mouse κ receptor (Mus musculus, UniProt P33534). The following applies: read-out: Binding potencies (Ki-nM) κ RECEPTOR [^3H] U-69, 593.
Assay [4] concerns the target cloned mouse δ receptor (Mus musculus, UniProt P32300). The following applies: read-out: Binding potencies (Ki-nM) δ RECEPTOR [^3H] naltrindole.
The target in assay [5] is T2, D128N mutant mouse delta opioid receptor (Mus musculus, UniProt P32300, D128N).
T2 construct: expressed in transfected cells; host or cells: COS-7 (transient, pCMV6c)
Type of assay: binding. The conditions noted are these: read-out: Potencies of Agonists to Bind, D128N mutant (Ki values in nM).

Assay [6] concerns the target T3, cloned rat μ opioid receptor (Rattus norvegicus, UniProt P33535).
T3 construct: expressed in transfected cells; host or cells: COS-7 (transient)
The conditions noted are these: read-out: Binding potencies (Ki-nM) [^3H] DAMGO rat.

Assay [7] concerns the target T4, wild-type mouse delta opioid receptor (Mus musculus, UniProt P32300).
T4 construct: expressed in transfected cells; host or cells: COS-7 (transient, pCMV6c)
Type of assay: binding. The following applies: read-out: Potencies of Agonists to Bind, Wild-type (Ki values in nM).

Assay [8] concerns the target T5, cloned human μ opioid receptor (Homo sapiens, UniProt P35372).
T5 construct: This fragment includes the entire coding region of the human μ opioid receptor; expressed in transfected cells; host or cells: COS-7 (transient, pcDNA3)
The following applies: read-out: Binding potencies (Ki-nM) for the cloned human μ opioid receptor [^3H] DAMGO.

Turning to D-Ala^2-deltorphin II, the Ki (usually the equilibrium dissociation constant of an inhibitor or competing ligand from its target) in assay [1] is 4 nM; in assay [2], above 1000 nM; in assay [3], above 1000 nM; in assay [4], 3.3 nM; in assay [5], 1940 nM.
Consider Dynorphin A (1–17), for which, in assay [4], the Ki was above 1000 nM.
For Leu-enkephalin, the Ki in assay [3] was above 1000 nM.
On to Met-enkephalin, for which the values for the Ki in assay [3] and in assay [4] were above 1000 nM and 4 nM, respectively.
On to β-Endorphin (human), for which the Ki turned out to be 1.7 nM in assay [6]; 8.1 nM in assay [1]; 1 nM in assay [2]; 26 nM in assay [7]; 1 nM in assay [4]; 15800 nM in assay [5]. For the same substance, the Ki in assay [8] came out at 0.94 nM.
